# Laboratory results: patent publication US20160195533A1 (MEDICINAL BIOCONVERGENCE RESEARCH CENTER, published 2016)
# How the values were obtained:
# [1] = target: T1, glutamyl-prolyl-tRNA synthetase (EPRS), endogenous protein of A549 or HEK293T cells (human, UniProt P07814); assay: endogenous co-IP with anti-EPRS antibody and protein A-agarose from A549 cytoplasm and nucleus fractions, anti-Snail1 western blot
# T1 construct: Endogenous protein in lysates of human cell lines (A549 cytosol and nucleus fractions; HEK293T); also called endogenous EPRS; EPRS (WT)
# Method: For the detection of endogenous EPRS interaction with Snail1 in nucleus and cytosol, the protein extracts were incubated with protein A agarose (Life technologies) for 30 minutes on ice, and then centrifuged to remove nonspecific IgG binding proteins. The pre-cleared supernatants were mixed with anti-EPRS antibody, incubated the mixture for 2 h at 4° C. with gentle agitation, added protein A agarose for 2 h, and centrifuged. After washing the precipitates with the cold lysis buffer 3-5 times, the precipitates were dissolved in the 2×SDS sample buffer and separated by SDS-PAGE.
# The interaction between EPRS and Snail1 were verified at the endogenous level of cytoplasm and nucleus. A549 cells were treated with TGF-β1 of different concentrations (0, 1, 10, 20 ng/ml) for 48 hours, fractionated into the cytoplasm and the nucleus, and then subjected endo-IP using protein A-agarose beads (Invitrogen) and EPRS antibody.
# [2] = target: T2, Flag-tagged EPRS (human Flag-tagged EPRS expression vector, Origene) (human, UniProt P07814); assay: co-IP with anti-FLAG M2 affinity gel from co-transfected HEK293T cells, anti-Strep western blot
# T2 construct: Bought vector; The order of the parts is therefore not known; also called Flag-EPRS; not shown: Flag tag
# Description: The interaction between EPRS and Snail1 was verified through IP after co-transfection of the proteins. HEK293T cells were co-transfected with (1) FLAG-tag empty vector and STREP-tag empty vector, (2) FLAG-tag empty vector and STREP-tagged Snail1 expression vector, (3) FLAG-tagged EPRS expression vector and STREP-tag empty vector, (4) FLAG-tagged EPRS expression vector and STR EP-tagged Snail1 expression vector, that is, in a total of four types of conditions, and then respective proteins were overexpressed, and then IP was performed using the anti-FLAG M2 affinity gel (Sigma).
binding result [1],binding result [2],Binder
binds,,"Snail1, endogenous protein of A549, HCC44, HEK293T or H1299 cells (other, Endogenous protein in cell lysates) MPRSFLVRKPSDPNRKPNYSELQDSNPEFTFQQPYDQAHLLAAIPPPEILNPTASLPMLIWDSVLAPQAQPIAWASLRLQESPRVAELTSLSDEDSGKGSQPPSPPSPAPSSFSSTSVSSLEAEAYAAFPGLGQVPKQLAQLSEAKDLQARKAFNCKYCNKEYLSLGALKMHIRSHTLPCVCGTCGKAFSRPWLLQGHVRTHTGEKPFSCPHCSRAFADRSNLRAHLQTHSDVKKYQCQACARTFSRMSLLHKHQESGCSGCPR"
,binds,"Strep-tagged Snail1 (pEXPR-IBA105-Snail1) (other, Overexpressed in HEK293T (or A549) cells; assayed in cell lysate; also called Strep-Snail; STREP-tag Snail1; not shown: Strep tag of pEXPR-IBA-105, at the N-terminus ('in the same manner as described above')) MPRSFLVRKPSDPNRKPNYSELQDSNPEFTFQQPYDQAHLLAAIPPPEILNPTASLPMLIWDSVLAPQAQPIAWASLRLQESPRVAELTSLSDEDSGKGSQPPSPPSPAPSSFSSTSVSSLEAEAYAAFPGLGQVPKQLAQLSEAKDLQARKAFNCKYCNKEYLSLGALKMHIRSHTLPCVCGTCGKAFSRPWLLQGHVRTHTGEKPFSCPHCSRAFADRSNLRAHLQTHSDVKKYQCQACARTFSRMSLLHKHQESGCSGCPR"
